Laboratory results as given in patent US20100028266A1, “Composition and methods for treating allergic response” (Alpha Synergy Development. Inc., priority 2008, published 2010).

Assays:
[1] = tested on: patient with nasal congestion; conditions: 0.03% Brimonidine nasal spray repeated for one week
[2] = tested on: eyes of a patient with an ocular condition (baseline redness 4/4); conditions: brimonidine at 0.033%, left eye only, 4 hrs after previous treatment
[3] = tested on: Lasik patients (Intralase femtosecond laser); conditions: Brimonidine 0.2%, used off label, reported; cited from earlier work

## Brc1c(N=C2NCCN2)ccc2nccnc12.O=C(O)C(O)C(O)C(=O)O [brimonidine, 5-bromo-6-(2-imidazolidinylideneamino)quinoxaline L-tartrate]
[1]
  rebound: without rebound
[2]
  rebound hyperemia after third application: without rebound hyperemia
[3]
  flap dislocation rates: 5-10%
